Biological target: T1, MMP 1 (Homo sapiens, UniProt P03956)
T1 construct: human recombinant fibroblast collagenase (truncated, mw=18,828, WAR, Radnor)
T1 sequence (P03956 100-269 limits assumed): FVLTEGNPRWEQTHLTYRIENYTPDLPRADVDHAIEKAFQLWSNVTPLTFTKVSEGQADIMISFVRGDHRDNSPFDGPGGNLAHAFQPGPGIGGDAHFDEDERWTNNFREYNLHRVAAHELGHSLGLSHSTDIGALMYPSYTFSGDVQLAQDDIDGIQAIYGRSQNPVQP
Experiment: In vitro collagenase assay (human recombinant fibroblast collagenase)
Assay type: biochemical
Settings: read-out: MMP 1 IC 50

IC50: 1410 nM
Structure (SMILES): CN1CCC(C(=O)NO)(S(=O)(=O)c2ccc(Oc3ccc(Cl)cc3)cc2)CC1 [Example 249, 4-[4-(4-chloro-phenoxy)-benzenesulfonyl]1-methyl-piperidine-4-carboxylic acid hydroxyamide]

From patent US6441023B1 (American Home Products Corporation, priority 1997, dated 2002)
